Activity calls are given as the source filed them.
Key:
Format in all cases: functional, cell-based
LX-2 [1] = test: Antifibrotic activity against human LX-2 cells overexpressing human Adenosine receptor A2a assessed as downregulation of COL1A1 expression at 10 uM incubated for 18 hrs by Western blotting analysis
LX-2 [2] = test: Antifibrotic activity against human LX-2 cells overexpressing human Adenosine receptor A2a assessed as downregulation of alpha-SMA expression at 10 uM incubated for 18 hrs by Western blotting analysis
LX-2 [3] = test: Antifibrotic activity against human LX-2 cells overexpressing human Adenosine receptor A2a assessed as downregulation of PKA phosphorylation at Thr197 residue at 10 uM incubated for 18 hrs by Western blotting analysis
LX-2 [4] = test: Antifibrotic activity against human LX-2 cells overexpressing human Adenosine receptor A2a assessed as downregulation of fibronectin expression at 10 uM incubated for 18 hrs by Western blotting analysis

Measured: Activity

CNc1nc(C#Cc2ccccc2)nc2c1ncn2COCc1ccccc1
active: all assays above

Nc1nc(NCCc2ccc(O)cc2)nc2nc(-c3ccco3)nn12
active: all assays above

Reference: ChEMBL document CHEMBL5614411, “Exploring novel A2AAR antagonists: Design, synthesis, and evaluation of 2,6,9-trisubstituted purine derivatives as promising antifibrotic agents” (Bioorg Med Chem, 2024)
